# Membrane permeability of cyclic peptides

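Lipid, pH, incubation time, direction and concentration are not recorded in the data file. Other peptides of the study may be missing here. Entries at the database's floor value (log10 P of -10) are not listed.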

PAMPA measures passive passage through an artificial lipid membrane. Values are log10 P with P in cm/s, so -5 is more permeable than -7.

Listed for CC(=O)N1CCC[C@H]1C(=O)N[C@@H]1C(=O)N(C)[C@H](CC(C)C)C(=O)N(C)[C@@H](CC(C)C)C(=O)N[C@H](CC(C)C)C(=O)N(C)[C@@H](CC(C)C)C(=O)N[C@H](C)C(=O)N[C@@H](CC(C)C)C(=O)N2CCC[C@@H]2C(=O)O[C@@H]1C: PAMPA -5.33 (log10 cm/s). CC(=O)N1CCC[C@H]1C(=O)N(C)[C@H](CC(C)C)C(=O)N[C@@H]1C(=O)N[C@H](Cc2ccccc2)C(=O)N[C@@H](CC(C)C)C(=O)N[C@H](CC2CCCCC2)C(=O)N(C)[C@H](C)C(=O)N[C@@H](CC(C)C)C(=O)N2CCC[C@H]2C(=O)O[C@@H]1C is reported with PAMPA -6.03 (log10 cm/s). The entry for CC(=O)N1CCC[C@H]1C(=O)N[C@@H]1C(=O)N(C)[C@H](CC(C)C)C(=O)N(C)[C@@H](CC(C)C)C(=O)N[C@H](CC(C)C)C(=O)N(C)[C@H](CC(C)C)C(=O)N(C)[C@@H](C)C(=O)N[C@@H](CC(C)C)C(=O)N2CCC[C@@H]2C(=O)O[C@@H]1C lists PAMPA -5.09 (log10 cm/s). For CC(=O)N1CCC[C@H]1C(=O)N(C)[C@H](CC(C)C)C(=O)N[C@@H]1C(=O)N[C@H](Cc2ccc(F)cc2)C(=O)N[C@@H](CCc2ccccc2)C(=O)N[C@H](Cc2ccccc2)C(=O)N(C)[C@H](C)C(=O)N[C@@H](CC(C)C)C(=O)N2CCC[C@H]2C(=O)O[C@@H]1C the data give PAMPA -6.00 (log10 cm/s). For CC(=O)N1CCC[C@H]1C(=O)N[C@@H]1C(=O)N(C)[C@H](CC(C)C)C(=O)N(C)[C@H](CC(C)C)C(=O)N[C@@H](CC(C)C)C(=O)N(C)[C@@H](CC(C)C)C(=O)N(C)[C@H](C)C(=O)N[C@@H](CC(C)C)C(=O)N2CCC[C@@H]2C(=O)O[C@@H]1C the data give PAMPA -4.92 (log10 cm/s).

The entry for CC(=O)N1CCC[C@H]1C(=O)N(C)[C@H](CC(C)C)C(=O)N[C@@H]1C(=O)N[C@H](Cc2ccc(F)cc2)C(=O)N[C@@H](CC(C)C)C(=O)N[C@H](Cc2cccc3ccccc23)C(=O)N(C)[C@H](C)C(=O)N[C@@H](CC(C)C)C(=O)N2CCC[C@H]2C(=O)O[C@@H]1C lists PAMPA -6.12 (log10 cm/s). CC(=O)N1CCC[C@H]1C(=O)N[C@@H]1C(=O)N(C)[C@H](CC(C)C)C(=O)N[C@H](CC(C)C)C(=O)N(C)[C@H](CC(C)C)C(=O)N(C)[C@@H](CC(C)C)C(=O)N[C@H](C)C(=O)N[C@@H](CC(C)C)C(=O)N2CCC[C@@H]2C(=O)O[C@@H]1C has PAMPA -5.19 (log10 cm/s). For CCC[C@@H]1NC(=O)[C@@H](Cc2ccc(F)cc2)NC(=O)[C@@H](NC(=O)[C@@H](CC(C)C)N(C)C(=O)[C@@H]2CCCN2C(C)=O)[C@@H](C)OC(=O)[C@@H]2CCCN2C(=O)[C@H](CC(C)C)NC(=O)[C@@H](C)N(C)C(=O)[C@@H](CC)NC1=O the data give PAMPA -6.13 (log10 cm/s). For COc1ccc(C[C@@H]2NC(=O)[C@@H](CC(C)C)NC(=O)[C@@H](NC(=O)[C@@H](CC(C)C)N(C)C(=O)[C@@H]3CCCN3C(C)=O)[C@@H](C)OC(=O)[C@@H]3CCCN3C(=O)[C@H](CC(C)C)NC(=O)[C@@H](C)N(C)C(=O)[C@@H](Cc3ccccc3)NC2=O)cc1 the data give PAMPA -5.72 (log10 cm/s). CCC[C@@H]1NC(=O)[C@@H](CC)NC(=O)[C@@H](NC(=O)[C@@H](CC(C)C)N(C)C(=O)[C@@H]2CCCN2C(C)=O)[C@@H](C)OC(=O)[C@@H]2CCCN2C(=O)[C@H](CC(C)C)NC(=O)[C@@H](C)N(C)C(=O)[C@@H](CC2CCCCC2)NC1=O is reported with PAMPA -5.32 (log10 cm/s).

COc1ccc(C[C@@H]2NC(=O)[C@@H](CC(C)C)NC(=O)[C@@H](NC(=O)[C@@H](CC(C)C)N(C)C(=O)[C@@H]3CCCN3C(C)=O)[C@@H](C)OC(=O)[C@@H]3CCCN3C(=O)[C@H](CC(C)C)NC(=O)[C@@H](C)N(C)C(=O)[C@@H](CC(C)C)NC2=O)cc1 is reported with PAMPA -5.86 (log10 cm/s). Listed for CC(=O)N1CCC[C@H]1C(=O)N[C@@H]1C(=O)N[C@H](CC(C)C)C(=O)N(C)[C@H](CC(C)C)C(=O)N[C@H](CC(C)C)C(=O)N[C@H](CC(C)C)C(=O)N[C@@H](C)C(=O)N[C@@H](CC(C)C)C(=O)N2CCC[C@@H]2C(=O)O[C@@H]1C: PAMPA -5.10 (log10 cm/s).

Data: CycPeptMPDB; original report Kelly et al. 2021, doi:10.1021/jacs.0c06115.